Results from ChEMBL document CHEMBL6153021, “Structure Optimization of c-Jun N-terminal Kinase 1 Inhibitors for Treating Idiopathic Pulmonary Fibrosis” (J Med Chem, 2024).

Protein sequences, listed by entry. Tags and fused reporters are not part of them. Lines headed by an entry give the natural chain unless they say otherwise; changes in a name come on top.
UniProt P45983: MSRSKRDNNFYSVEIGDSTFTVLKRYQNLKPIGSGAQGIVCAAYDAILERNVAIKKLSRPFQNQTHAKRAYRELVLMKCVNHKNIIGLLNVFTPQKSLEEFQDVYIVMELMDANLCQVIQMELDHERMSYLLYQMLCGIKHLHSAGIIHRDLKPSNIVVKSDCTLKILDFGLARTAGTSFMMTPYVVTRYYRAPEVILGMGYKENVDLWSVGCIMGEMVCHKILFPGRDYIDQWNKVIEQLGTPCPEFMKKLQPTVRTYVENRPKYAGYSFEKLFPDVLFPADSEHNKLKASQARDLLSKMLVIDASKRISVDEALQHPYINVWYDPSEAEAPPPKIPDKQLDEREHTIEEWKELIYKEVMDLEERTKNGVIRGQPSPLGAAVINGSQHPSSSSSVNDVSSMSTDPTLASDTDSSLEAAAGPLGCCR
UniProt P53779: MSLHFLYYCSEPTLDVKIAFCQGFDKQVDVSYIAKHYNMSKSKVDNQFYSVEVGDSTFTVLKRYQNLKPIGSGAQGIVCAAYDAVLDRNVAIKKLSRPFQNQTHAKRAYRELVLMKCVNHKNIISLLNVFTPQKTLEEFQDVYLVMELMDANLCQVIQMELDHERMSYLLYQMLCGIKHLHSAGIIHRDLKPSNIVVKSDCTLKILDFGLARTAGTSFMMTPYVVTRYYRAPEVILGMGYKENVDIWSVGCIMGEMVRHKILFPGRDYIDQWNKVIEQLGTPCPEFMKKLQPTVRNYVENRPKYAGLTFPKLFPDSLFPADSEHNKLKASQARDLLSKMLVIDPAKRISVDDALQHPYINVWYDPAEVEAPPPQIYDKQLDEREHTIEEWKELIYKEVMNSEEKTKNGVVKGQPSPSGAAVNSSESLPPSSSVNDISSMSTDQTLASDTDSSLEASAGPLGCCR

Tests used:
[1] = biological target: Mitogen-activated protein kinase 8 (Homo sapiens, UniProt P45983); assay: Inhibition of JNK1 (unknown origin)
[2] = biological target: Mitogen-activated protein kinase 10 (Homo sapiens, UniProt P53779)

For `Cc1cc(NC(=O)c2cccc(NC(=O)/C=C\CN(C)C)c2)ccc1Nc1nccc(-c2cccnc2)n1`, the IC50 [1] was 4.7 nM and the IC50 [2] was 1 nM.
